A selection: hits, their analogues and other compounds. The true share with any hit is near 1.2%.
Rce1 inhib – inhibitors of yeast Ras-converting enzyme. Q03530. yeast membranes, quenched prenylated peptide cleavage fluorescence. calls only. 0.27% of 290,000 active. AID 2563;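 active = fall in fluorescence gain of 50% or more versus controls, with final raw signal at or below 3038400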;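 note: plate controls were neutral control wells for no effect and wells lacking membranes for full effect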
UUG fidelity – yeast start codon fidelity modulation; activity score, % at 18.7 µM; actives 0.13% (n = 350,000); S. cerevisiae UUG-firefly luciferase reporter, luminescence/redox ratio; AID 602363;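 active means replicate mean at a twofold rise or more, about +100% in these data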;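 further: firefly luciferase made from a UUG start codon reports start codon fidelity; reporter light over untreated wells divided by growth signal over untreated wells; some hits fall short of that in this replicate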
DSG3 Ab inh – inhibitors of pemphigus antibody binding to human desmoglein-3 | P32926 | DSG3-coupled beads, scFv-anti-DSG3-GFP binding, flow cytometry; stronger effect = lower value | binding (percent of control), % at 10 µM | 0.48% of 310,000 active | AID 588358;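 active = binding more than 3 SD below its plate's average and above zero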;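 note: hits lower antibody fragment binding to DSG3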
TbMetRS inhib – Trypanosoma brucei MetRS inhibition. purified T. brucei MetRS, ATP depletion, Kinase-Glo luminescence. inhibition, % at 11.9 µM. 0.4% of 360,000 active;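 active = inhibition above a per-plate cutoff of the control wells' mean inhibition plus 3 SD, cut at about 5.5% in these data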;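 note: 0% = DMSO wells median and 100% = median of wells with control inhibitor compound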
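Test system – parasite MetRS enzyme · Reagent – substrates ATP, L-methionine and bulk Escherichia coli tRNA · Doses – 11.9 µM compound single dose, 0.9% DMSO · Times – 15 min enzyme-compound preincubation, 2 h reaction, 10 min detection, 25 °C · Signal – Kinase-Glo luminescence, ATP depletion format · Controls – DMSO-only wells as low control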
Arr AP2 block – blocks beta-arrestin peptide binding to AP2 adaptin; inhibition, % at 10 µM; 0.31% of 340,000 active; AID 504490; FITC-arrestin peptide / GST-AP2 beads, flow cytometry; AP2 beta2 appendage carries R879A mutation;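 active = inhibition above a set limit, near 3 SD of compounds lacking own fluorescence, cut at about 54% in these data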;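 note: plate controls were DMSO wells for no effect and 5 µM unlabelled arrestin peptide for full effect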
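Test system: GST-tagged AP2 beta2-adaptin appendage (R879A) on 4 µm glutathione beads; also added: fluorescein-tagged arrestin peptide at 50 nM final; timing: 12 min plus 1 h, RT; signal: flow cytometry, FL1 (488/535 nm); read-out: percent drop in bead-associated FITC signal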
Tb MetRS conf – Trypanosoma brucei MetRS inhibition confirmed; shares compounds with TbMetRS inhib; T. brucei MetRS enzyme, luminescence (ATP depletion); inhibition, % at 11.9 µM; 93% of 1,400 active; in the data active = inhibition above about 7%
Jurkat cytotox – counter-screen for T. brucei MetRS inhibitors: Jurkat cell cytotoxicity. shares compounds with TbMetRS inhib. Jurkat cells viability, ATP luminescence. inhibition, % at 8.3 µM. 12% of 1,400 active; in the data active = inhibition above about 15%;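 note: 0% = vehicle and 100% = reference inhibitor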
Tb MetRS inh FP – T. brucei MetRS inhibition, orthogonal assay; AID 651607; shares compounds with TbMetRS inhib; inhibition, % at 11.9 µM; 44% of 1,400 active; purified T. brucei MetRS, fluorescence polarization; in the data active = inhibition above about 17%;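 note: 0% = vehicle wells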
The depositor's hits bear a star; i = inactive; . = no result.

entry | SMILES | Rce1 inhib | UUG fidelity | DSG3 Ab inh | TbMetRS inhib | Arr AP2 block | Tb MetRS conf | Jurkat cytotox | Tb MetRS inh FP
1 | COc1ccc(C(CNC(=O)Nc2ccc(Cl)cc2)N2CCN(C)CC2)cc1 (stereo not given) | i | -5.9 | 93.1 | 14.8* | -4.2 | 39.3* | 4.4 | 16.9*
2 | CCCNC(=O)N1[C@@H](CO)[C@@H](c2ccc(C3=CCCC3)cc2)[C@@H]1CNC(=O)CC | . | -5.3 | . | . | . | . | . | .
3 | Cn1nccc1-c1coc2c(C(=O)N3CCOCC3)cccc12 | . | 3.7 | . | 7.6* | . | 4.8 | -9.5 | 1.5
4 | CC(C)C(=O)Nc1ccc2c(c1)C(=O)N(C)[C@@H]1CC[C@@H](CC(=O)NCc3cccc(F)c3)O[C@@H]1CO2 | . | 14.9 | . | . | . | . | . | .
5 | Cc1cnc(CNC(=O)C2CCC(=O)N(Cc3ccc(Cl)cc3)C2)[nH]1 (stereo not given) | i | -17.8 | 102.2 | 31.7* | 1.3 | 68.6* | -0.7 | 35.6*
6 | O=C(NCc1ccccn1)C1CCC(=O)N(Cc2ccc(Cl)cc2)C1 (stereo not given) | i | -18.9 | 103.3 | 0.7 | 10.2 | . | . | .
7 | CCc1ccc(C(=O)NNc2cc(Cl)cc(Cl)c2)cc1 | i | -7.9 | 102.9 | 14.7* | -3.0 | 39.4* | 2.3 | 18.8*
8 | O=C(NNc1cc(Cl)cc(Cl)c1)c1cccs1 | i | -15.8 | 117.9 | 25.0* | -11.4 | 56.3* | -3.1 | 30.0*
9 | Cc1ccc(S(=O)(=O)N[C@@H]2CC[C@@H](CCn3cc(C4CCCC4)nn3)O[C@@H]2CO)cc1 | . | -22.0 | . | . | . | . | . | .
10 | CSc1nc2ccccc2n1CC(=O)Nc1cc(C(F)(F)F)ccc1N1CCOCC1 | . | . | 107.1 | 12.9* | -8.6 | 20.8* | 11.8 | 11.3
11 | COc1ccc(S(=O)(=O)Nc2ccc3c(c2)C(=O)N([C@@H](C)CO)C[C@@H](C)[C@@H](CN(C)C(=O)Nc2ccc(C(F)(F)F)cc2)O3)cc1 | . | -3.4 | . | . | . | . | . | .
12 | CC(C)NC(=O)N(C)C[C@H]1Oc2ccc(NS(=O)(=O)c3cn(C)cn3)cc2C(=O)N([C@H](C)CO)C[C@H]1C | . | -14.1 | . | . | . | . | . | .
13 | COCCCNC(=S)NNC(=O)c1ccc(S(=O)(=O)N2CCC(C)CC2)cc1 | i | . | 76.5 | 58.7* | -3.2 | 80.5* | 3.0 | 50.0*
14 | Cc1ccc(S(=O)(=O)N(C)C[C@H]2Oc3ccc(NC(=O)CCN4CCOCC4)cc3C(=O)N([C@@H](C)CO)C[C@H]2C)cc1 | . | -0.5 | . | . | . | . | . | .
15 | COC(=O)c1nc[nH]c1[N+](=O)[O-] | . | 9.9 | 122.6 | -0.1 | -10.2 | . | . | .
16 | O=[N+]([O-])c1[nH]cnc1/C=C/c1ccccc1 | i | -19.2 | 88.0 | 5.6* | -8.8 | 10.1* | 3.8 | -0.3
17 | Cc1ccc(S(=O)(=O)N(C)C[C@H]2OCCCC[C@@H](C)Oc3ccc(NS(=O)(=O)c4c(C)noc4C)cc3C(=O)N([C@@H](C)CO)C[C@@H]2C)cc1 | . | -10.4 | . | . | . | . | . | .
18 | O=C(NCCc1nc2ccccc2[nH]1)c1ccc(Cl)c([N+](=O)[O-])c1 | i | . | 103.1 | 94.3* | 48.4 | 99.6* | 6.3 | 97.2*
19 | Cc1ccc(C(=O)NCCc2nc3ccccc3[nH]2)cc1[N+](=O)[O-] | i | . | 97.0 | 77.2* | 0.3 | 78.2* | 19.8* | 59.1*
20 | Cc1ccc(C(=O)NCCSc2c(C)[nH]c3ccccc23)cc1[N+](=O)[O-] | i | -13.0 | 107.0 | -0.2 | 3.9 | . | . | .
21 | O=c1[nH]c(Nc2ccccc2)cc2ccccc12 | i | . | 99.3 | 8.1* | 17.3 | 3.9 | -0.7 | 4.6
22 | O=C(Cc1ccccc1)Nc1nonc1NC(=O)c1ccccc1 | i | -14.6 | 99.8 | 9.1* | -4.3 | 16.2* | 3.8 | 10.3
23 | O=C(Cc1ccccc1)Nc1ccc(NC(=O)c2ccccc2)nc1 | i | 2.5 | 98.4 | 0.5 | -11.1 | . | . | .
24 | O=Cc1ccc(-c2ccc([N+](=O)[O-])cc2Cl)o1 | . | . | 97.5 | 6.5* | -3.4 | 12.0* | -4.0 | 6.6
25 | O=Cc1ccc(-c2cccc([N+](=O)[O-])c2)o1 | i | . | 105.9 | -0.1 | -2.1 | . | . | .
26 | CNC(=S)NNC(=O)c1sccc1OCc1ccc(Cl)cc1Cl | i | -25.6 | 97.7 | 0.4 | 3.0 | . | . | .
27 | S=c1nc(-c2sccc2OCc2ccc(Cl)cc2Cl)[nH][nH]1 | i | . | 97.2 | 8.6* | -15.7 | 12.5* | 1.1 | 0.0
28 | CCCCCCCCC1=NCCc2c1[nH]c1ccccc21 | i | 4.4 | 103.6 | 49.4* | -0.3 | 70.4* | 32.7* | 47.3*
29 | CC(C)C/C=C1\CCc2c([nH]c3ccccc23)C1=O | i | 0.2 | 100.5 | 3.6 | 19.4 | . | . | .
30 | CCOc1ccc(S(=O)(=O)c2c[nH]c3ccccc3c2=O)cc1 | i | . | 92.8 | 12.8* | 9.5 | 24.2* | 1.4 | 6.2
31 | OC(COc1ccc(Cl)cc1Cl)Cn1ccnc1 (stereo not given) | i | -2.0 | 91.8 | 6.0* | 7.9 | 14.3* | -0.7 | 3.7
32 | O=C(CCCOc1ccc(Cl)cc1Cl)NCCCn1ccnc1 | i | . | 101.5 | 6.5* | 7.1 | 18.1* | -7.2 | 11.4
33 | C[C@@H]1CN([C@@H](C)CO)C(=O)c2cc(NC(=O)CCC(F)(F)F)ccc2O[C@@H](C)CCCCO[C@H]1CN(C)S(=O)(=O)c1ccc(Cl)cc1 | . | 2.5 | . | . | . | . | . | .
34 | Clc1cccc(N/N=C(\Cc2nc3ccccc3[nH]2)c2ccccc2)c1 | i | -17.6 | 130.5 | 58.9* | 1.8 | 89.6* | 2.5 | 98.0*
35 | O=C(C(=O)N1CCN(c2ccccc2)CC1)c1c[nH]c2ccccc12 | i | . | . | 6.7* | 17.2 | 13.0* | 4.3 | 3.0
36 | O=C(C(=O)N1CCN(Cc2ccccc2)CC1)c1c[nH]c2ccccc12 | . | -10.1 | 98.5 | 11.9* | -0.8 | 21.2* | -5.5 | 3.8
37 | COc1ccc(N2CCN(C(=O)C(=O)c3c[nH]c4ccccc34)CC2)cc1 | i | 6.7 | 103.4 | 4.8 | 12.0 | . | . | .
38 | Cc1[nH]c2ccccc2c1C(=O)C(=O)N1CCN(C)CC1 | i | -8.7 | 101.1 | -0.1 | 10.2 | . | . | .
39 | Cc1[nH]c2ccccc2c1C(=O)C(=O)N1CCN(c2ccccc2)CC1 | i | -6.0 | 105.8 | 11.8* | -8.2 | 19.4* | -11.7 | 9.7
40 | COc1ccccc1N1CCN(C(=O)C(=O)c2c[nH]c3ccccc23)CC1 | i | 1.9 | 105.5 | 9.3* | -8.9 | 26.9* | -2.5 | 4.1
41 | CCS(=O)(=O)Nc1ccc2c(c1)C(=O)N(C)C[C@H](OC)[C@@H](C)CN(C(=O)NC(C)C)[C@@H](C)CO2 | . | -0.9 | . | . | . | . | . | .
42 | CCCNC(=O)N(C)C[C@@H]1Oc2ncc(-c3ccncc3)cc2C(=O)N([C@@H](C)CO)C[C@@H]1C | . | -10.8 | . | . | . | . | . | .
43 | O=C(c1cc(=O)[nH]c2ccccc12)N1CCN(Cc2ccc3c(c2)OCO3)CC1 | . | -13.6 | 101.8 | -0.3 | -6.1 | . | . | .
44 | O=C(C(=O)N1CCN(c2ccccc2F)CC1)c1c[nH]c2ccccc12 | i | . | . | 7.3* | 6.5 | 10.8* | 6.4 | 2.9

Quoted from above: entries 35 to 37
entry | SMILES | Rce1 inhib | UUG fidelity | DSG3 Ab inh | TbMetRS inhib | Arr AP2 block | Tb MetRS conf | Jurkat cytotox | Tb MetRS inh FP
35 | O=C(C(=O)N1CCN(c2ccccc2)CC1)c1c[nH]c2ccccc12 | i | . | . | 6.7* | 17.2 | 13.0* | 4.3 | 3.0
36 | O=C(C(=O)N1CCN(Cc2ccccc2)CC1)c1c[nH]c2ccccc12 | . | -10.1 | 98.5 | 11.9* | -0.8 | 21.2* | -5.5 | 3.8
37 | COc1ccc(N2CCN(C(=O)C(=O)c3c[nH]c4ccccc34)CC2)cc1 | i | 6.7 | 103.4 | 4.8 | 12.0 | . | . | .

A different layout for part of the listing above:
33	C[C@@H]1CN([C@@H](C)CO)C(=O)c2cc(NC(=O)CCC(F)(F)F)ccc2O[C@@H](C)CCCCO[C@H]1CN(C)S(=O)(=O)c1ccc(Cl)cc1
34	Clc1cccc(N/N=C(\Cc2nc3ccccc3[nH]2)c2ccccc2)c1

Screen / compound no.,33,34
Rce1 inhib,.,i
UUG fidelity,2.5,-17.6
DSG3 Ab inh,.,130.5
TbMetRS inhib,.,58.9*
Arr AP2 block,.,1.8
Tb MetRS conf,.,89.6*
Jurkat cytotox,.,2.5
Tb MetRS inh FP,.,98.0*
